Reference: US20030199523A1, “Heterocyclic calcium in channel blockers” (priority 2002, published 2003)

Protein sequences, listed by entry. Tags and fused reporters are not part of them. Lines headed by an entry give the natural chain unless they say otherwise; changes in a name come on top.
UniProt Q13936, whole entry: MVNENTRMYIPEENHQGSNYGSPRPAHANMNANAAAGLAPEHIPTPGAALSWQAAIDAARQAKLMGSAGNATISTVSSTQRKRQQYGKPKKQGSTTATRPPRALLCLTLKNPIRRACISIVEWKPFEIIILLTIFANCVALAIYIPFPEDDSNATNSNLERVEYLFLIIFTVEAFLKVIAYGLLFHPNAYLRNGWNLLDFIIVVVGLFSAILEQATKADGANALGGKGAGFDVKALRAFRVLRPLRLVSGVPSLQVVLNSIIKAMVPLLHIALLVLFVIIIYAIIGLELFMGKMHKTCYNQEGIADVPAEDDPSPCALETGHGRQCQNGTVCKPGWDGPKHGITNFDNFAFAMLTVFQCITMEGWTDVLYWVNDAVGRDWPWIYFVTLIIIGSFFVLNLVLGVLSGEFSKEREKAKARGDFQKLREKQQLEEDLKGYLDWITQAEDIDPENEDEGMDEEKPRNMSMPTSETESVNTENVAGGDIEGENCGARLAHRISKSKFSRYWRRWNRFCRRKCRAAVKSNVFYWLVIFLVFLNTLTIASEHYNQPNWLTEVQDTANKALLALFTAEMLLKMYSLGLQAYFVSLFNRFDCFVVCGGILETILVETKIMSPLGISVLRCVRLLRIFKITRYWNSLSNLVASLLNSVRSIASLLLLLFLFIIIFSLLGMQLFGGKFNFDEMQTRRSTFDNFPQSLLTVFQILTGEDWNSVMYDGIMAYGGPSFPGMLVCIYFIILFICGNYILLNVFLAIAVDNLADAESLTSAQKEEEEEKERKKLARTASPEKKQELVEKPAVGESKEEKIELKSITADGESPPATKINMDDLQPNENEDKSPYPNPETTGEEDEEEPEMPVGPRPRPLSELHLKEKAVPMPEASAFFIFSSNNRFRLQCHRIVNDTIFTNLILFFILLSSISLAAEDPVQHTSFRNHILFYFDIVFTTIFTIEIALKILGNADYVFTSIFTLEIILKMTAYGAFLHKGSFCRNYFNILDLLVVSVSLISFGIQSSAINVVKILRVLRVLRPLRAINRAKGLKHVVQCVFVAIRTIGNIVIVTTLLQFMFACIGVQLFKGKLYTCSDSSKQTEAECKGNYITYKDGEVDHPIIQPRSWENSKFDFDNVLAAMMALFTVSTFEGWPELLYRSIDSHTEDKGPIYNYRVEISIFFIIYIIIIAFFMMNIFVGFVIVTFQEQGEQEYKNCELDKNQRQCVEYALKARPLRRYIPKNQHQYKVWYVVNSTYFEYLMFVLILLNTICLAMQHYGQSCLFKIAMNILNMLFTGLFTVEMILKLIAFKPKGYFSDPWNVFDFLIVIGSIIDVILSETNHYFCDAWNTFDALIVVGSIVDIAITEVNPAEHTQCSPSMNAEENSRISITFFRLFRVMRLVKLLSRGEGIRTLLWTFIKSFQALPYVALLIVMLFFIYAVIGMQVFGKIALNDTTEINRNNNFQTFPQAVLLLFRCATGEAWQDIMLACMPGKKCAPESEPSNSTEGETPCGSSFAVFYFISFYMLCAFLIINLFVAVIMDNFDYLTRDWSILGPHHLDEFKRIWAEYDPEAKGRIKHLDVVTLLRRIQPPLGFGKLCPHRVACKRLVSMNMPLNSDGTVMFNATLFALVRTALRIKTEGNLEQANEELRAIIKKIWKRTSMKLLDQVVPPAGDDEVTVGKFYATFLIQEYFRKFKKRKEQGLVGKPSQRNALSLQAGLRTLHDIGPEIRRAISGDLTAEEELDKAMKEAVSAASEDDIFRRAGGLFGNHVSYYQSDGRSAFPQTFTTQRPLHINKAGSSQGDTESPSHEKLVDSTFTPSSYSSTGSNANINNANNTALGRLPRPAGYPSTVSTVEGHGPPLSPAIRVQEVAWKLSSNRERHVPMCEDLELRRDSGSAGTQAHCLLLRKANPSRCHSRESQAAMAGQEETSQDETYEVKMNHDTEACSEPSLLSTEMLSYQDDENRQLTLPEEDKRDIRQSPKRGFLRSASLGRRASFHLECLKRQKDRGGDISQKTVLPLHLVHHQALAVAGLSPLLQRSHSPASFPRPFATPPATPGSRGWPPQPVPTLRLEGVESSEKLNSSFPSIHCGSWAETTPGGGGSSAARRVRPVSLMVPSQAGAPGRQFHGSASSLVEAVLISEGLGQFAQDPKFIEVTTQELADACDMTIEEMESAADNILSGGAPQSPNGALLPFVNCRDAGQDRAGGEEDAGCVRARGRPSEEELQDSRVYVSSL
UniProt Q02294, whole entry: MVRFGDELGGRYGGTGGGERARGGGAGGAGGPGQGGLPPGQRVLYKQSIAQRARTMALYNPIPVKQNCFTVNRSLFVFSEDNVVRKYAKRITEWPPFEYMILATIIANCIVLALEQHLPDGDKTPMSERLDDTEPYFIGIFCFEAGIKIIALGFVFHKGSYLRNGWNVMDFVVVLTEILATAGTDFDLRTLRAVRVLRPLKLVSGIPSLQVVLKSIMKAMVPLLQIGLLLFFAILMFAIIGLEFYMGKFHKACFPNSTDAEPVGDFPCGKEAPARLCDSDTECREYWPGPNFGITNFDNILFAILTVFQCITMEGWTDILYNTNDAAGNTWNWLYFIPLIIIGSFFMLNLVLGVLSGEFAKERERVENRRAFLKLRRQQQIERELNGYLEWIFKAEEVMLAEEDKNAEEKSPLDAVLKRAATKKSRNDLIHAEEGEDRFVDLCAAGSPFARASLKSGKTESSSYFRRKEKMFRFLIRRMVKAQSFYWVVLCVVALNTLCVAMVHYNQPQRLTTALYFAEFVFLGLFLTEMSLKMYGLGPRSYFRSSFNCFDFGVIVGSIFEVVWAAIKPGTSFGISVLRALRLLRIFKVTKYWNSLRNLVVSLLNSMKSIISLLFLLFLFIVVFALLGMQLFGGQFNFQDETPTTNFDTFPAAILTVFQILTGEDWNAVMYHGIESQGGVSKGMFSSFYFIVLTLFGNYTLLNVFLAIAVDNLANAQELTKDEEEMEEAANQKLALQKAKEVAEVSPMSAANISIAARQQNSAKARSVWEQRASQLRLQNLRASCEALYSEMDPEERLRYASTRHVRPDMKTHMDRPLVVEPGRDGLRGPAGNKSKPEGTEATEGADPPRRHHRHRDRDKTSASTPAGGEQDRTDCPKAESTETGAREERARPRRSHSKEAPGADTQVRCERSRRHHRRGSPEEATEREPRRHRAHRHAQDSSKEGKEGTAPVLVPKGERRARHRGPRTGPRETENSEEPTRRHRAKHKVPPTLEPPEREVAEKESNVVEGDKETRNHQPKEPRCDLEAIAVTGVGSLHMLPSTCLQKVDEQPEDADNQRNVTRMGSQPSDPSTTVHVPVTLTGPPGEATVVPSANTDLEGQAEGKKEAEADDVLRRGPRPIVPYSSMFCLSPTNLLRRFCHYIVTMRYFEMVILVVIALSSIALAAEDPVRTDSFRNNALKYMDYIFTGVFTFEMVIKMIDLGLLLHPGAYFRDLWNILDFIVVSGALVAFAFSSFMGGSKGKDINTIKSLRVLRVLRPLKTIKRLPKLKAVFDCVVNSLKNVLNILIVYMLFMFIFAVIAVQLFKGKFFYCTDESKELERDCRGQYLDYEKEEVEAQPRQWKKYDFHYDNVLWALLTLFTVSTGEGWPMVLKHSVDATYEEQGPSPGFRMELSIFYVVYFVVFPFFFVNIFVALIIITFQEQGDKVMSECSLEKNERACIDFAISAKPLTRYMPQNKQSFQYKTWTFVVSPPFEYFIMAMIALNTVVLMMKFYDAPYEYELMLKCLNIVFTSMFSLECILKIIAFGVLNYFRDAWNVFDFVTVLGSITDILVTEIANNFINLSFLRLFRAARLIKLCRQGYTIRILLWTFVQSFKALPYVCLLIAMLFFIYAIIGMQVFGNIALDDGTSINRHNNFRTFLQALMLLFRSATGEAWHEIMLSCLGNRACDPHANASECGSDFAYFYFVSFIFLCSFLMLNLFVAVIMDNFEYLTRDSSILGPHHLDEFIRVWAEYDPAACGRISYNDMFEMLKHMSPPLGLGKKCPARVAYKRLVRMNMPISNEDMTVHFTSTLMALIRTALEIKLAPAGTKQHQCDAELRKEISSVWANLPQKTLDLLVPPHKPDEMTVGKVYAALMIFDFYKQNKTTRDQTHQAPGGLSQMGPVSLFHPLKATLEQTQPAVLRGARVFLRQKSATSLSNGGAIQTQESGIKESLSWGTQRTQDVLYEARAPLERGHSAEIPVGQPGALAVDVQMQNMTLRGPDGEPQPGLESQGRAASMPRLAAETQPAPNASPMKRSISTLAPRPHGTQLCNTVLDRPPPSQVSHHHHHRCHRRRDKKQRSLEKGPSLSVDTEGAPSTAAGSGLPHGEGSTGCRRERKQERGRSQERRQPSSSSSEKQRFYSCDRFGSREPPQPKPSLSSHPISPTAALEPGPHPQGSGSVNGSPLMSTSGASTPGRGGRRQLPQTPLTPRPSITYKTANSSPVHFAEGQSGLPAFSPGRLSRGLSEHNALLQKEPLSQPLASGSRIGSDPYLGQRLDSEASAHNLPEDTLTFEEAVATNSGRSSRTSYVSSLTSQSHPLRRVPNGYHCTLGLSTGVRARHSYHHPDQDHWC

Assays:
[1] = target: L-type channels (α1C+α2δ+β1b) (Homo sapiens, UniProt Q13936); assay: Whole cell patch clamp block of L-type calcium channels transiently expressed in HEK 293 cells
Protocol: (§1) The method of Example 1 was followed with slight modifications as will be apparent from the description below.
(§2) N-type calcium channel blocking activity was assayed in human embryonic kidney cells, HEK 293, stably transfected with the rat brain N-type calcium channel subunits (α1B+α2δ+β1b cDNA subunits). Alternatively, N-type calcium channels (α1B+α2δ+β1b cDNA subunits), L-type channels (α1C+α2δ+β1b cDNA subunits) and P/Q-type channels (α1A+α2δ+β1b cDNA subunits) were transiently expressed in HEK 293 cells. Briefly, cells were cultured in Dulbecco's modified eagle medium (DMEM) supplemented with 10% fetal bovine serum, 200 U/ml penicillin and 0.2 mg/ml streptomycin at 37° C. with 5% CO2. At 85% confluency cells were split with 0.25% trypsin/1 mM EDTA and plated at 10% confluency on glass coverslips. At 12 hours the medium was replaced and the cells transiently transfected using a standard calcium phosphate protocol and the appropriate calcium channel cDNAs. Fresh DMEM was supplied and the cells transferred to 28° C./ 5% CO2. Cells were incubated for 1 to 2 days to whole cell recording.
(§3) Whole cell patch clamp experiments were performed using an Axopatch 200B amplifier (Axon Instruments, Burlingame, Calif.) linked to a personal computer equipped with pCLAMP software. […] Data were analyzed using Clampfit (Axon Instruments) and SigmaPlot 4.0 (Jandel Scientific).

[2] = target: rat brain N-type calcium channel (α1B+α2δ+β1b) (Rattus norvegicus, UniProt Q02294); assay: Whole cell patch clamp block of N-type calcium channels expressed in HEK 293 cells; conditions: read-out: estimated IC50 for the N-type channel at peak current amplitude; peak current amplitude
Protocol: (§4) Antagonist activity was measured using whole cell patch recordings on human embryonic kidney cells either stably or transiently expressing rat α1B+α2b+β1b channels (N-type channels) with 5 mM barium as a charge carrier.
(§5) For transient expression, host cells, such as human embryonic kidney cells, HEK 293 (ATCC# CRL 1573) were grown in standard DMEM medium supplemented with 2 mM glutamine and 10% fetal bovine serum. HEK 293 cells were transfected by a standard calcium-phosphate-DNA coprecipitation method using the rat α1B+β1b+α2δ N-type calcium channel subunits in a vertebrate expression vector (for example, see Current Protocols in Molecular Biology).
(§6) After an incubation period of from 24 to 72 hrs the culture medium was removed and replaced with external recording solution (see below). Whole cell patch clamp experiments were performed using an Axopatch 200B amplifier (Axon Instruments, Burlingame, Calif.) linked to an IBM compatible personal computer equipped with pCLAMP software. Borosilicate glass patch pipettes (Sutter Instrument Co., Novato, Calif.) were polished (Microforge, Narishige, Japan) to a resistance of about 4 MΩ when filled with cesium methanesulfonate internal solution (composition in MM: 109 CsCH3SO4, 4 MgCl2, 9 EGTA, 9 HEPES, pH 7.2). Cells were bathed in 5 mM Ba^++ (in mM: 5 BaCl2, 1 MgCl2, 10 HEPES, 40 tetraethylammonium chloride, 10 glucose, 87.5 CsCl pH 7.2). Current data shown were elicited by a train of 100 ms test pulses at 0.066 Hz from −100 mV and/or −80 mV to various potentials (min. −20 mV, max. +30 mV). Drugs were perfused directly into the vicinity of the cells using a microperfusion system.
(§7) Normalized dose-response curves were fit (Sigmaplot 4.0, SPSS Inc., Chicago, Ill.) by the Hill equation to determine IC50 values. Steady-state inactivation curves were plotted as the normalized test pulse amplitude following 5 s inactivating prepulses at +10 mV increments. Inactivation curves were fit (Sigmaplot 4.0) with the Boltzman equation, Ipeak (normalized)=1/(1+exp((V−Vh)z/25.6)), where V and Vh are the conditioning and half inactivation potentials, respectively, and z is the slope factor.
as §1, §2
(§8) Whole cell patch clamp experiments were performed using an Axopatch 200B amplifier (Axon Instruments, Burlingame, Calif.) linked to a personal computer equipped with pCLAMP software. The external and internal recording solutions contained, respectively, 5 mM BaCl2, 1 mM MgCl2, 10 mM HEPES, 40 mM TEACl, 10 mM glucose, 87.5 mM CsCl (pH 7.2) and 108 mM CsMS, 4 mM MgCl2, 9 mM EGTA, 9 mM HEPES (pH 7.2). Currents were typically elicited from a holding potential of −80 mV to +10 mV using Clampex software (Axon Instruments). Typically, currents were first elicited with low frequency stimulation (0.03 Hz) and allowed to stabilize prior to application of the compounds. […]

[3] = system: rat brain N-type calcium channel (α1B+α2δ+β1b); assay: as above
Protocol: as §4, §5, §6, §7, §1, §2, §8

[4] = target: P/Q-type channels (α1A+α2δ+β1b) (Homo sapiens, UniProt O00555); assay: Whole cell patch clamp block of P/Q-type calcium channels transiently expressed in HEK 293 cells
Protocol: as §1, §2, §3

[5] = from IC50 at half-inactivation voltage at steady state
[6] = from IC50 at peak current amplitude

SMILES: O=C(COc1ccc(Cl)cc1Cl)Nc1ncc([N+](=O)[O-])s1
- pIC50 ([1]; read-out: IC50 for the L-type channel at peak current amplitude, peak current amplitude): 6.11
- pIC50 ([1]; read-out: IC50 for the L-type channel at the half-inactivation voltage at steady state, half-inactivation voltage at steady state): 7.00
- pIC50 [2]: 7.41
- selectivity for N-type channels versus L-type and P/Q-type (in words) ([3]; N-type, L-type and P/Q-type channels compared): somewhat selective for N-type channels
- N:L ratio [3, 5]: 3.1
- N:P ratio [3, 5]: 3.5
- N:L ratio [3, 6]: 20
- N:P ratio [3, 6]: 24
- pIC50 ([4]; read-out: IC50 for the P/Q channel at peak current amplitude, peak current amplitude): 6.03
- pIC50 ([4]; read-out: IC50 for the P/Q channel at the half-inactivation voltage at steady state, half-inactivation voltage at steady state): 6.92

pIC50: −log10 of the molar value. Where two headings read alike, the source gives them in different places.
